Yeast mating assay B: variants of the scFv Ab-14

The measurements come from Li et al. 2023 (doi:10.1038/s41467-023-39022-2) through the FLAb antibody collection.

Target: peptide PDVDLGDISGINAS, taken from heptad repeat 2 (HR2) of SARS-CoV-2 spike.

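Designed CDR sequences, proposed from the first random library and measured here. Their group label is 14L_GP_HC (GP: Gaussian process model; HC: hill climbing; a sequence that several methods proposed may carry one label only). AlphaSeq pools MATa yeast showing the antibodies with MATalpha yeast showing the peptide. Mating (16 h, 30 °C) was followed by selection of diploids and sequencing of their barcodes. Scores were corrected for input abundance and mapped to Kd with protein pairs of known affinity run in the same pool. Each pool was mated in six replicate cultures.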

Parent: Ab-14, a human scFv built as VH, a (GGGGS)3 linker, VL. Only the CDRs of the light chain vary.
VH: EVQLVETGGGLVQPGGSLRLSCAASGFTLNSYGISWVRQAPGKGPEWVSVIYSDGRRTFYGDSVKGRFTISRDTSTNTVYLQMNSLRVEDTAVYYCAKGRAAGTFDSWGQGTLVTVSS
VL: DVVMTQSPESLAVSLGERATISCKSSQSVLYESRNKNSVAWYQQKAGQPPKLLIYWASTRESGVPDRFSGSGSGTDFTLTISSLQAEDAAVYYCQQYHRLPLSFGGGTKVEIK

The parent's light chain CDRs are KSSQSVLYESRNKNSVA, WASTRES, QQYHRLPLS; each variant's own CDRs replace them letter for letter. Scale: log10 of Kd in nM, estimated from mating counts; low values are strong binders. A mean of the replicates is given; it leaves out those without a signal. A sequence measured in both rounds can read differently, since the two assays cover different ranges.

KLPQSVLYESRNKNSVA, HASTRED, QSYHRLPLS: -0.18, -0.24, -0.37, -0.33, -0.20, -0.14 (mean -0.24; controls 0 of 18).
KVRQGTLYESRNKNSVA, YASTRES, QQYHRLPLS: 0.18, 0.65, 0.56, 0.48, 0.39, 0.48 (mean 0.46; controls 0 of 18).
KVSQSVLYESHNKNSVA, NASTRMS, QQYHRLPLS: 0.43, 0.18, 0.48, 0.06, 0.27, 0.40 (mean 0.30; controls 0 of 18).
KMSQSVLYESHNKNSVA, NASTRMS, QQYHRLPLS: 0.59, 0.55, 0.25, 0.39, 0.42, 0.32 (mean 0.42; controls 1 of 18).
KVSQSMLYESGTKNSVA, NASSRES, QQYHRLPLS: 0.74, 0.62, 0.47, 0.82, 0.32, 0.32 (mean 0.55; controls 1 of 18).
KQSMSVLQESRNKNSVA, DASTRES, QQYHRLPLS: 0.32, -0.33, -0.06, -0.03, -0.08, -0.05 (mean -0.04; controls 2 of 18).
HSSPSVPYESRNKNSVA, NASTREQ, QDYHRLPLS: 0.16, -0.06, -0.22, -0.41, -0.28, -0.05 (mean -0.14; controls 0 of 18).
KSSISVLGESRNKNSVA, EASTRES, QQYHRLPLS: 0.12, -0.19, -0.49, -0.38, -0.22, -0.13 (mean -0.22; controls 0 of 18).
KLRQSTLYESRNKNSVA, QASTRES, QQYHRLPLS: 0.70, 0.25, 0.34, -0.27, -0.07, 0.43 (mean 0.23; controls 0 of 18).
KFSQSVLYESRAKNSVA, NASTRES, QWYHRLPLS: 1.25, 2.10, 1.53, 2.31, 1.39, 1.82 (mean 1.73; controls 0 of 18).
HLSWSQLYESRNKNSVA, NASTRES, QQYHRLPLS: 0.00, -0.21, -0.28, -0.24, -0.30, -0.05 (mean -0.18; controls 3 of 18).
KQSQSVLSESRNCNSVA, DASTRES, QQYVRLPLS: 1.10, 0.94, 0.92, 0.52, 0.51, 0.74 (mean 0.79; controls 0 of 18).
KFSQWVLYESRTSNSVA, NASTRES, QQYHRLPLS: 1.10, 1.20, 1.66, 1.22, 1.27, 1.33 (mean 1.30; controls 1 of 18).
KMSISMLGESRNKNSVA, EASTRES, QQYHRLPLS: -0.48, -0.19, -0.35, -0.49, -0.16, -0.13 (mean -0.30; controls 0 of 18).
KSSQSFLYESRWKNSVA, GASQRES, QQYHRLPLS: 0.79, 0.70, 0.63, 0.68, 0.90, 0.69 (mean 0.73; controls 2 of 18).
KMEQSVLYESRNKNSVA, GASVRES, QQYHRLPLS: 0.11, -0.24, -0.22, -0.38, -0.23, 0.00 (mean -0.16; controls 2 of 18).
KSSDSGLYESRMKNSVA, EASTRES, QQYHRLPLS: -0.25, -0.52, -0.52, -0.16, -0.56, -0.37 (mean -0.40; controls 0 of 18).
KSACGVLYESRNKNSVA, GASTRES, QQYHRLPLS: 0.65, 0.52, 0.02, 0.19, 0.37, 0.48 (mean 0.37; controls 0 of 18).
KSSVSYLYESRNKNSVA, EASTRES, QQYHRLPLM: 0.43, 0.49, 0.28, 0.14, 0.01, 0.39 (mean 0.29; controls 0 of 18).
KVSQSVLYENGTKNSVA, NASSRES, QQYHRLPLS: 0.51, 0.56, 0.32, 0.26, -0.11, 0.43 (mean 0.33; controls 0 of 18).
KVRQSHLYESRNKNSVA, WASTRES, QQYHRLPLS: 0.32, 1.12, -0.14, -0.10, 0.38, 0.69 (mean 0.38; controls 1 of 18).
KQSQMVLFESRNKNSVA, DASTRES, QQYHRLPLS: -0.16, -0.23, 0.10, -0.43, -0.23, -0.22 (mean -0.20; controls 0 of 18).
KVSQSVLQESRNKNSVA, DASTRES, QQYHRLPLS: -0.21, -0.41, -0.19, -0.38, -0.20, -0.15 (mean -0.26; controls 0 of 18).
KQSQSVLYESRNKNSVA, DASQRES, QQYHRLPLD: 0.60, 0.51, 0.53, 0.28, 0.33, 0.85 (mean 0.52; controls 0 of 18).
KSSWSYLYESRNKNSVA, EASTRES, QQYHRLPLS: 0.04, -0.36, -0.32, -0.33, -0.26, -0.23 (mean -0.25; controls 0 of 18).
KSSQSVKFESRNKNSVA, DASTRET, QQYHRLPLS: 0.42, 0.06, 0.30, 0.34, 0.30, 0.41 (mean 0.31; controls 2 of 18).
KVLQSQEYESRNKNSVA, HASTRED, QQYHCLPLS: 0.46, 0.49, 0.52, 0.53, 0.78, 0.80 (mean 0.60; controls 1 of 18).
KSSISYLYESMNKNSVA, EASQRES, QQYHRLPLS: -0.10, -0.11, 0.18, -0.28, -0.05, -0.55 (mean -0.15; controls 1 of 18).
KFSQKVLYEGRTKNSVA, NASTREQ, QQYHRLPLS: -0.12, -0.30, -0.58, -0.52, -0.37, -0.31 (mean -0.37; controls 2 of 18).
KLRQQTLYESRNKNSVA, GASTREE, QQYHRLPLS: -0.18, -0.16, -0.39, -0.44, -0.20, -0.21 (mean -0.26; controls 0 of 18).
KLSLSVLMESRNKNSVA, NASTRES, QQYHRLPLS: 1.06, 1.16, 1.31, 1.01, 1.53, 1.79 (mean 1.31; controls 1 of 18).
KSSISYLGEMRNKNSVA, EASTRES, QQYHRLPLS: 0.98, 0.49, 0.43, 0.40, 0.54, 1.20 (mean 0.67; controls 0 of 18).

The authors' rule: three or more of the six replicates give a measured affinity, fewer mean a poor binder. Of ten entries with the parent sequence, four were seen in most replicates (averages 0.34 to 2.37), three in one and three in none, so single entries are noisy. Background: pairings of all light chain designs with three empty control strains gave a value in 4% of cases (median 2.64, 5th percentile 1.59). Values in that range, when seen in few replicates, are hard to tell from nonspecific mating. For each scFv, signals with the empty controls are counted beside the result.